# Test results reported in ChEMBL document CHEMBL2218924, “A broad activity screen in support of a chemogenomic map for kinase signalling research and drug discovery” (Biochem J, 2013).
# By UniProt entry, the sequences of proteins in these tests, tags left out. Where a name states a change or a piece, a line headed by the entry shows the natural chain unless it says otherwise.
# UniProt P67870, whole entry, looked up: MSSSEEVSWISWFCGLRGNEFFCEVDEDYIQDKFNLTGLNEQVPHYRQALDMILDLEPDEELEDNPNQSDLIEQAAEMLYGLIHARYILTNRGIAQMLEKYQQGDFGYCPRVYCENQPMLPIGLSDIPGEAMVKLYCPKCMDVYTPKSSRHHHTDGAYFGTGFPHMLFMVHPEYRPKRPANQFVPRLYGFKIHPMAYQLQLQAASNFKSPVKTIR
# UniProt P68400, whole entry, looked up: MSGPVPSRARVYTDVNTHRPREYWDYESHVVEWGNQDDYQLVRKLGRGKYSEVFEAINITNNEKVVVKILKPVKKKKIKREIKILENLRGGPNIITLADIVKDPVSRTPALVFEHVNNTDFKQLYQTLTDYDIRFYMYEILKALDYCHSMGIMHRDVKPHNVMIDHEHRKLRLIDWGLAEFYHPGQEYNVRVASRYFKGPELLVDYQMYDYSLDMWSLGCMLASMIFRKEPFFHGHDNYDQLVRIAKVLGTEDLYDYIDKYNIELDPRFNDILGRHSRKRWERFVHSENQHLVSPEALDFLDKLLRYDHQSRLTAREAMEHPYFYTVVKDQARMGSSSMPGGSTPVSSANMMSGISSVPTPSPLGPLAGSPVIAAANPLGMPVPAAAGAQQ
# UniProt P19784, whole entry, looked up: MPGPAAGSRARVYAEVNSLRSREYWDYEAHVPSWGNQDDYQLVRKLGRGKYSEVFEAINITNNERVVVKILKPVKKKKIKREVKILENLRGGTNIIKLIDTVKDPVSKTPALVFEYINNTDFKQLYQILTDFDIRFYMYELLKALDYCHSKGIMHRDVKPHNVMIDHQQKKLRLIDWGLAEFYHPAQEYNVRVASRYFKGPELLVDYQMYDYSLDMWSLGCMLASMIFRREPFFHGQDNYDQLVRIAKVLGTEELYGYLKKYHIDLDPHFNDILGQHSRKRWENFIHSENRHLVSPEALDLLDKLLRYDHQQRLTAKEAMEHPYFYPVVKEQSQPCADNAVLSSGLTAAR
# UniProt P54764, whole entry: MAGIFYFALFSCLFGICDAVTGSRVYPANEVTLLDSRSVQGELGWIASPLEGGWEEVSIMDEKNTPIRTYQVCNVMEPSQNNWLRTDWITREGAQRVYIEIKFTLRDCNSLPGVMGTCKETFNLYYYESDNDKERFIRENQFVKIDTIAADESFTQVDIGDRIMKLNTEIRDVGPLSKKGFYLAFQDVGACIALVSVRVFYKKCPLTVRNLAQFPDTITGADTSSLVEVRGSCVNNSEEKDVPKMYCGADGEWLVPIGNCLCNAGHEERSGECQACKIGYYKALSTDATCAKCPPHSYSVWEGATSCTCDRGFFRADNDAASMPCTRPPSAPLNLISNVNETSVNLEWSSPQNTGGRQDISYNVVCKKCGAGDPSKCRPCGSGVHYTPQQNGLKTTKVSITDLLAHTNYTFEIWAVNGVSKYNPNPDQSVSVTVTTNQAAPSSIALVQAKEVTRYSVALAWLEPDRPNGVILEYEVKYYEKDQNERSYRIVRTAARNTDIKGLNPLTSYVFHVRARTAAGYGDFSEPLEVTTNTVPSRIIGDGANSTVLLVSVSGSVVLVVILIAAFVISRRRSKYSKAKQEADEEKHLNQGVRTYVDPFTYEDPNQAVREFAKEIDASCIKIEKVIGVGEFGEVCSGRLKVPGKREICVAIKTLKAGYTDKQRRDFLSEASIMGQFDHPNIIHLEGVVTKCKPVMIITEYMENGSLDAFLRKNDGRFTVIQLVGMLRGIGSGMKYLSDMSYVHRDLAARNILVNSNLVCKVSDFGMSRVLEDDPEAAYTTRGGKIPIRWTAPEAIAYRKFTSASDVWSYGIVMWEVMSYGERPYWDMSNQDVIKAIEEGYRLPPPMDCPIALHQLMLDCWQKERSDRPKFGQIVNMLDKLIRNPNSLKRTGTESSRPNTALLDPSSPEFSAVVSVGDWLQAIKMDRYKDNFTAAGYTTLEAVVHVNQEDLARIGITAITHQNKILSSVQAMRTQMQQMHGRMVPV
# UniProt P49840: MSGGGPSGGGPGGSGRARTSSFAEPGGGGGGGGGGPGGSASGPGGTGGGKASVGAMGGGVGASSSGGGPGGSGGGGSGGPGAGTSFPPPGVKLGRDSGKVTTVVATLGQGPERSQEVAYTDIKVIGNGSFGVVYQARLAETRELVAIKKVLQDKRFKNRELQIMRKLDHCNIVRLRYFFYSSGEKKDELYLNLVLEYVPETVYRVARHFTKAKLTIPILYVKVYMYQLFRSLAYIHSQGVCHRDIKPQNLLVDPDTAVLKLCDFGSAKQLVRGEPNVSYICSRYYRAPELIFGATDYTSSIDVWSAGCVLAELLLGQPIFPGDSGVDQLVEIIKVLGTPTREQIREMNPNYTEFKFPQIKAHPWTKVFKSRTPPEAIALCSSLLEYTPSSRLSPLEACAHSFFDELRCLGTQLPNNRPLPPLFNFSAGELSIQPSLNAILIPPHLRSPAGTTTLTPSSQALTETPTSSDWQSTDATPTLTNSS
# UniProt Q04759: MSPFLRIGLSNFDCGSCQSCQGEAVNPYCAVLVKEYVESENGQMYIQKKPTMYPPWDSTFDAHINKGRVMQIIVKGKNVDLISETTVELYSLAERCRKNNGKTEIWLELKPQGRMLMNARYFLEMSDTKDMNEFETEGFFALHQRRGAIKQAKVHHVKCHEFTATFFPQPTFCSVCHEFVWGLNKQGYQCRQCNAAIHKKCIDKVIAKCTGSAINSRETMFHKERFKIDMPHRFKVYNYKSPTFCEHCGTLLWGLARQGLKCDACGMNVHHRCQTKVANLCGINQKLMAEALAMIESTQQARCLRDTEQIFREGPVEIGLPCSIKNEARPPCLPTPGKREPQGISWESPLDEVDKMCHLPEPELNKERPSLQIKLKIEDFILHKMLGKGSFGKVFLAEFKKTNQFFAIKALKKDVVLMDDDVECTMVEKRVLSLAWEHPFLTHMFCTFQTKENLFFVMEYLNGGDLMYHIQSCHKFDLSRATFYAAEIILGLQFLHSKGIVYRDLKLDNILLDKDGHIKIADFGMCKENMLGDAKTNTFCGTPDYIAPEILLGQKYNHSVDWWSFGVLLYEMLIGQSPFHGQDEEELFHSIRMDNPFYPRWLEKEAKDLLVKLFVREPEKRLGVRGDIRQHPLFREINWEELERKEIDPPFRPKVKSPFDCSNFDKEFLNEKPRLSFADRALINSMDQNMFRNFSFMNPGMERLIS
# UniProt Q9P1W9: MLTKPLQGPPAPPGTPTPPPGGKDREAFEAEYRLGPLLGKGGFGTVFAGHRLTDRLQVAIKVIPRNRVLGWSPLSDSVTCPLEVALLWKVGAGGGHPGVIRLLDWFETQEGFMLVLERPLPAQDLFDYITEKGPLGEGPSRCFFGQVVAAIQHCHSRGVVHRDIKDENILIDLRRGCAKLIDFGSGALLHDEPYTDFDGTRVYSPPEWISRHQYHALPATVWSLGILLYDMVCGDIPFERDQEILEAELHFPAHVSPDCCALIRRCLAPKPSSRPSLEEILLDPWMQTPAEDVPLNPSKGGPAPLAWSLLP
# UniProt P08922: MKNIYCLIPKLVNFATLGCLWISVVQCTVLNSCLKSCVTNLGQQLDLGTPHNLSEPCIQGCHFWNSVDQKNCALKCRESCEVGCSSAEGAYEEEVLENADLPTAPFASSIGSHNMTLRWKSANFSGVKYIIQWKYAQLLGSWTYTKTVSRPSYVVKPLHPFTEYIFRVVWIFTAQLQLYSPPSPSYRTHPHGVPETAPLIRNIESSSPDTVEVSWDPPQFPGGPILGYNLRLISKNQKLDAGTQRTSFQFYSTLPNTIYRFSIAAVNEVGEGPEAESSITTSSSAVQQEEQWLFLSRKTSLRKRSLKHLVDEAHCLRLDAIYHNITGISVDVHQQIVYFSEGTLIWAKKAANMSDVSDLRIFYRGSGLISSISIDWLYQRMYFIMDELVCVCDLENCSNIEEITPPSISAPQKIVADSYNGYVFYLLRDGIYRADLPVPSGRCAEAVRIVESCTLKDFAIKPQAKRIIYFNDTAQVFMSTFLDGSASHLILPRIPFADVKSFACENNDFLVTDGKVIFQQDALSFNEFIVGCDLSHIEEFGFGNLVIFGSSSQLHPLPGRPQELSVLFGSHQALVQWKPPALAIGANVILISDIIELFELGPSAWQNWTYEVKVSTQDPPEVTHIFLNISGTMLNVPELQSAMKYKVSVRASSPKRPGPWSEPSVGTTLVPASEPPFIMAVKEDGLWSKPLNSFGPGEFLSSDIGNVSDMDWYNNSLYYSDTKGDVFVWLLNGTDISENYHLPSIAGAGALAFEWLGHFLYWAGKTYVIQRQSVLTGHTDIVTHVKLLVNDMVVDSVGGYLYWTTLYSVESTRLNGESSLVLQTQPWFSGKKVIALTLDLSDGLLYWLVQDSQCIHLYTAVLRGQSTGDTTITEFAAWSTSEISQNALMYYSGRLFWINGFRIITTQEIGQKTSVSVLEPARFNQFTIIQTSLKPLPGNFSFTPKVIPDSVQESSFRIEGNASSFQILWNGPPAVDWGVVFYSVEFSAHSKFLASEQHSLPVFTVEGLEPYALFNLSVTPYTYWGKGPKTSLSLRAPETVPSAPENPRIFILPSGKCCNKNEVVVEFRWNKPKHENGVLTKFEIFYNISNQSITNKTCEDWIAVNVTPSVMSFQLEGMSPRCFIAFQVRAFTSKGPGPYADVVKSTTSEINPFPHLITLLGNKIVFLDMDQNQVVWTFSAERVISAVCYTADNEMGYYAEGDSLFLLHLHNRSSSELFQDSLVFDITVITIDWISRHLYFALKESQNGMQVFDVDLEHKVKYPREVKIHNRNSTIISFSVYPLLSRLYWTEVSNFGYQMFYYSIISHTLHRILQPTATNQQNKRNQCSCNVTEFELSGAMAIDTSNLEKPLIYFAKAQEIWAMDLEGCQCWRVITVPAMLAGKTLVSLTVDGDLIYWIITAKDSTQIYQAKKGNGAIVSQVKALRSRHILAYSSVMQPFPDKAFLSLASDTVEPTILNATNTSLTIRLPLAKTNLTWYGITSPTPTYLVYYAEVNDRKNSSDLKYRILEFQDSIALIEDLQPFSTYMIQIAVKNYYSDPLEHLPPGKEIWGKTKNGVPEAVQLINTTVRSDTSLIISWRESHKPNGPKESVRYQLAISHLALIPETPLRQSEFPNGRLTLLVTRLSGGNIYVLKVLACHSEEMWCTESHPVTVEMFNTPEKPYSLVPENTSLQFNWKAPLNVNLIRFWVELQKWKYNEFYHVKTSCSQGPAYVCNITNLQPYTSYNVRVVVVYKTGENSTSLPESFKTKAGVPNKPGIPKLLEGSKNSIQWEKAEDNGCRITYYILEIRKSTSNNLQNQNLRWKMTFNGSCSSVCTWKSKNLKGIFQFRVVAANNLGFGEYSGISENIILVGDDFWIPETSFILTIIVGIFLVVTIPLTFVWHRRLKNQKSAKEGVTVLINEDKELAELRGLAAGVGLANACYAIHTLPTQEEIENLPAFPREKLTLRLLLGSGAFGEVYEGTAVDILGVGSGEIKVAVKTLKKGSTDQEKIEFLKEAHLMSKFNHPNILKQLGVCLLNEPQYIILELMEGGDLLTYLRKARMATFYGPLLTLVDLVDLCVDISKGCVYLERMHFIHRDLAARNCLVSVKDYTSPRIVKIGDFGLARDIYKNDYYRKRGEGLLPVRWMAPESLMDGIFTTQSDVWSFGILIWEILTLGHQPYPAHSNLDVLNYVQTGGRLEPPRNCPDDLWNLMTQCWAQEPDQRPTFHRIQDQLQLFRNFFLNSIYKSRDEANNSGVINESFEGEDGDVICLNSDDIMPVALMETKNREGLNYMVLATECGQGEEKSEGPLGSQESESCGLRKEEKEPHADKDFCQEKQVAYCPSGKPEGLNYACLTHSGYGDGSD
# UniProt Q96SB4, whole entry: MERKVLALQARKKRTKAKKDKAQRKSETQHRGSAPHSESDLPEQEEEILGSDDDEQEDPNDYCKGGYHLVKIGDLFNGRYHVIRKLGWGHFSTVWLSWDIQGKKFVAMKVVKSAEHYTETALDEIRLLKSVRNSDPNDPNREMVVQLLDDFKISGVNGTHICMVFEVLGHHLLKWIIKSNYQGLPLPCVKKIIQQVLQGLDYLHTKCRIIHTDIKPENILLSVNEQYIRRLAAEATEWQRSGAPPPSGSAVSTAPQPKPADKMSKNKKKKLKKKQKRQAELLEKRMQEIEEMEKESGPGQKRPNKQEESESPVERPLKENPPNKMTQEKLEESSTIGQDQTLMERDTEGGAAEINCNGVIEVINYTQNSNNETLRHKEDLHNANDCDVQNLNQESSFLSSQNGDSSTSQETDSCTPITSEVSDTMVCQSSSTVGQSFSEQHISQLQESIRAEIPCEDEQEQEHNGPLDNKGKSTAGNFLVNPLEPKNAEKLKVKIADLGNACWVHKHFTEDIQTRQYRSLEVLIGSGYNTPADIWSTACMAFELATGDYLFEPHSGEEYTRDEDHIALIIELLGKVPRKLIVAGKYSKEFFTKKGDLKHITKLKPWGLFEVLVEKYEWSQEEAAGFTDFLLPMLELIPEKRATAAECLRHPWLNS
# For part of these data: Shown are results outside the selection of strong results, which stands elsewhere. The rule behind the calls is not given here. The entries are a selection whose mix differs from that of the whole data set.
# Columns and labels:
# [1] = target: Protein kinase C zeta type (Homo sapiens) (UniProt Q05513); conditions: at 1 µM
# [2] = target: Cyclin-dependent kinase 1/cyclin B1 (Homo sapiens) (UniProt P06493+P14635); conditions: at 1 µM
# [3] = target: Casein kinase II (Homo sapiens) (UniProt P67870+P68400+P19784); conditions: at 1 µM
# [4] = target: Casein kinase II subunit alpha' (Homo sapiens) (UniProt P19784); conditions: at 1 µM;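 note: residual kinase activity of CSNK2A2 expressed as percent of untreated control, so lower values mean stronger inhibition, with Jnk Inhibitor II at 100 µM as reference inhibitor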
# [5] = target: Calcium/calmodulin-dependent protein kinase type IV (Homo sapiens) (UniProt Q16566); conditions: at 1 µM
# [6] = target: T1, Discoidin domain-containing receptor 2 (Homo sapiens) (UniProt Q16832); conditions: at 1 µM
# T1 sequence (whole entry): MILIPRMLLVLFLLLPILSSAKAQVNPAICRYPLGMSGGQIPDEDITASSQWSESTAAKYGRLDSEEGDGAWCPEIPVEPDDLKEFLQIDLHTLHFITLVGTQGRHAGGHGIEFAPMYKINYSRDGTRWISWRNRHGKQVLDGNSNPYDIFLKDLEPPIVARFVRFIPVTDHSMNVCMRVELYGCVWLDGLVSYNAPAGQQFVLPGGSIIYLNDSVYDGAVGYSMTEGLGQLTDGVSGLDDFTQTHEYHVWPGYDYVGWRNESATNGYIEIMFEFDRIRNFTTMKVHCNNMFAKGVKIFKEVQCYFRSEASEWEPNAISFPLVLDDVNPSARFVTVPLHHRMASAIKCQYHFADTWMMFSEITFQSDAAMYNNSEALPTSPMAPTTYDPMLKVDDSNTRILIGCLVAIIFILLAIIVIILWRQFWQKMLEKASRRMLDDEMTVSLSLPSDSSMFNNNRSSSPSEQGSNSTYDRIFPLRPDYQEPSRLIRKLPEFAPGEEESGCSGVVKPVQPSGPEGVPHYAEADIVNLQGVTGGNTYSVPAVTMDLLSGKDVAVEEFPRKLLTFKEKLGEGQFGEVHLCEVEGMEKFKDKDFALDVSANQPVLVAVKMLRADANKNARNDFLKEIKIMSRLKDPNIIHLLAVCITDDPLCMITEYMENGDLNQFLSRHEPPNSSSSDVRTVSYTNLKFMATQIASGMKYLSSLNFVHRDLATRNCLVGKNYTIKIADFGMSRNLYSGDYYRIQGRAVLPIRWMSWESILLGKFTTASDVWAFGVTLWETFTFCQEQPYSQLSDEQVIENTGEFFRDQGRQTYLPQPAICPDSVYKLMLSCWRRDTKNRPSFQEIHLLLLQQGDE
# [7] = target: Epidermal growth factor receptor (Homo sapiens) (UniProt P00533); conditions: at 10 µM
# [8] = target: Ephrin type-A receptor 2 (Homo sapiens) (UniProt P29317); conditions: at 1 µM
# [9] = target: T2, Ephrin type-A receptor 3 (Homo sapiens) (UniProt P29320); conditions: at 1 µM
# T2 sequence (whole entry): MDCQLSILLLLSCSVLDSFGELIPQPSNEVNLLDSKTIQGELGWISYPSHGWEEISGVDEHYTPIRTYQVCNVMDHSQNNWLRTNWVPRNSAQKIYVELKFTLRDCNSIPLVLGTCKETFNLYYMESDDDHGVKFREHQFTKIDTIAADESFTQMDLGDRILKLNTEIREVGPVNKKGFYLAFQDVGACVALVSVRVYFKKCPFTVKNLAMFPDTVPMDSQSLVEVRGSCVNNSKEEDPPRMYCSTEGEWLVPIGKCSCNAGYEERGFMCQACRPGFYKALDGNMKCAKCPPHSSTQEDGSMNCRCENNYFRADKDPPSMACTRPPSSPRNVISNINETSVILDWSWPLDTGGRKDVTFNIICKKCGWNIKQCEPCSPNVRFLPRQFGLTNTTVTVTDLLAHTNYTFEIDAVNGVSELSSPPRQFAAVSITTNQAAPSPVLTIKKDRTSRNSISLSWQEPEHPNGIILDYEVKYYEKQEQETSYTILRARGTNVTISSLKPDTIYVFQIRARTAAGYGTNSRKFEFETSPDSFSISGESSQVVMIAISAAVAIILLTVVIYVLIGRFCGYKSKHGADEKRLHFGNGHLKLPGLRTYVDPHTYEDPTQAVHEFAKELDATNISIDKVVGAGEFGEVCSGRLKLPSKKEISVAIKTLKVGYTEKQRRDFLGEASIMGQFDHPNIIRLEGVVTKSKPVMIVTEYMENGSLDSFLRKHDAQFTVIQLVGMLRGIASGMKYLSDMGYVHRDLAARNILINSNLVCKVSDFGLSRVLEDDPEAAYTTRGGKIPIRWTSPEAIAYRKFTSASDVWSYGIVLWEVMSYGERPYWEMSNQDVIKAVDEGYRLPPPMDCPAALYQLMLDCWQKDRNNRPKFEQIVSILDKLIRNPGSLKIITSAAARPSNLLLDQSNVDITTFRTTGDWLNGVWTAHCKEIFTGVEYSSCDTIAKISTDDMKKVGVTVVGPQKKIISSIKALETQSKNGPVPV
# [10] = target: Ephrin type-A receptor 4 (Homo sapiens) (UniProt P54764); conditions: at 1 µM
# [11] = target: Glycogen synthase kinase-3 alpha (Homo sapiens) (UniProt P49840); conditions: at 1 µM
# [12] = target: Glycogen synthase kinase-3 beta (Homo sapiens) (UniProt P49841); conditions: at 1 µM
# [13] = target: Protein kinase C zeta type (Homo sapiens) (UniProt Q05513); conditions: at 10 µM
# [14] = target: Protein kinase C theta type (Homo sapiens) (UniProt Q04759); conditions: at 1 µM
# [15] = target: T3, Protein kinase C iota type (Homo sapiens) (UniProt P41743); conditions: at 1 µM
# T3 sequence (whole entry): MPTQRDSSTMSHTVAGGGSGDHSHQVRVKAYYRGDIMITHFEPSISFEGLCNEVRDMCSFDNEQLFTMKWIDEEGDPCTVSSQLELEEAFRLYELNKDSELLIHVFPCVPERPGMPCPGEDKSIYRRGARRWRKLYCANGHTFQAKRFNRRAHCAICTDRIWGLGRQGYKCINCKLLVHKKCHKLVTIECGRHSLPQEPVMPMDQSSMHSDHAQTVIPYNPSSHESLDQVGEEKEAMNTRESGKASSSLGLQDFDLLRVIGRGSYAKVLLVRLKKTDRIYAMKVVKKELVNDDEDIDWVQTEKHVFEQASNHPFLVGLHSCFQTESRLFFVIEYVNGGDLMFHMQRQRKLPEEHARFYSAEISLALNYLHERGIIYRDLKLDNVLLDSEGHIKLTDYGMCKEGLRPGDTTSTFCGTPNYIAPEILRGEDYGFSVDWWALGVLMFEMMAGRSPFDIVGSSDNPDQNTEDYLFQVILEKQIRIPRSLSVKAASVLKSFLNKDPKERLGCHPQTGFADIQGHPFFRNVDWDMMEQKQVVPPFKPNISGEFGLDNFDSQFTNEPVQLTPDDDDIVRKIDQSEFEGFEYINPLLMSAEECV
# [16] = target: T3, Protein kinase C iota type (Homo sapiens); conditions: at 10 µM
# [17] = target: cGMP-dependent protein kinase 1 (Homo sapiens) (UniProt Q13976); conditions: at 1 µM
# [18] = target: Serine/threonine-protein kinase pim-2 (Homo sapiens) (UniProt Q9P1W9); conditions: at 1 µM
# [19] = target: Serine/threonine-protein kinase pim-2 (Homo sapiens) (UniProt Q9P1W9); conditions: at 10 µM
# [20] = target: Serine/threonine-protein kinase pim-3 (Homo sapiens) (UniProt Q86V86); conditions: at 1 µM
# [21] = target: Serine/threonine-protein kinase PLK1 (Homo sapiens) (UniProt P53350); conditions: at 1 µM
# [22] = target: Serine/threonine-protein kinase PLK3 (Homo sapiens) (UniProt Q9H4B4); conditions: at 1 µM
# [23] = target: Serine/threonine-protein kinase PLK3 (Homo sapiens) (UniProt Q9H4B4); conditions: at 10 µM
# [24] = target: Rho-associated protein kinase 1 (Homo sapiens) (UniProt Q13464); conditions: at 1 µM
# [25] = target: Rho-associated protein kinase 2 (Homo sapiens) (UniProt O75116); conditions: at 1 µM
# [26] = target: Proto-oncogene tyrosine-protein kinase ROS (Homo sapiens) (UniProt P08922); conditions: at 1 µM
# [27] = target: Mitogen-activated protein kinase 11 (Homo sapiens) (UniProt Q15759); conditions: at 10 µM
# [28] = target: T4, Mitogen-activated protein kinase 12 (Homo sapiens) (UniProt P53778); conditions: at 10 µM
# T4 sequence (whole entry): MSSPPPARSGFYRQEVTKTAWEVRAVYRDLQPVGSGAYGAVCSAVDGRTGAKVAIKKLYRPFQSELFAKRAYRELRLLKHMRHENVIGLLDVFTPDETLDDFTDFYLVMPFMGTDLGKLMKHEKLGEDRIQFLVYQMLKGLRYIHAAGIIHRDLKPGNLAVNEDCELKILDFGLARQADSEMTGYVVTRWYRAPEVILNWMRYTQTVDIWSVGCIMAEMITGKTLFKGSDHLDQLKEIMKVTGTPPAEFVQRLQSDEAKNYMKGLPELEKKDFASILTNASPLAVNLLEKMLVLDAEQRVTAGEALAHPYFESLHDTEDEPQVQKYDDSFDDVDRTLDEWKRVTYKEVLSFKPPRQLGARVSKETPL
# [29] = target: SRSF protein kinase 1 (Homo sapiens) (UniProt Q96SB4); conditions: at 10 µM
# [30] = target: Tyrosine-protein kinase SYK (Homo sapiens) (UniProt P43405); conditions: at 1 µM
smiles,measurement,setting,value
CCN(CC)CCNC(=O)c1c(C)[nH]c(/C=C2\C(=O)Nc3ccc(Cl)cc32)c1C,residual activity,[1],inactive: 103%
same,residual activity,[2],93%
same,residual activity,[3],86%
same,residual activity,[4],113%
same,residual activity,[5],88%
same,residual activity,[6],94%
same,residual activity,[7],110%
same,residual activity,[8],94%
same,residual activity,[9],94%
same,residual activity,[10],101%
same,residual activity,[11],104%
same,residual activity,[12],87%
same,residual activity,[13],107%
same,residual activity,[14],102%
same,residual activity,[15],inactive: 84%
same,residual activity,[16],79%
same,residual activity,[17],89%
same,residual activity,[18],99%
same,residual activity,[19],92%
same,residual activity,[20],92%
same,residual activity,[21],92%
same,residual activity,[22],inactive: 94%
same,residual activity,[23],95%
same,residual activity,[24],101%
same,residual activity,[25],86%
same,residual activity,[26],106%
same,residual activity,[27],92%
same,residual activity,[28],92%
same,residual activity,[29],94%
same,residual activity,[30],92%
